ChEMBL document CHEMBL4808212 (Bioorg Med Chem Lett, 2021)

Molecular target: Replicase polyprotein 1ab (Severe acute respiratory syndrome coronavirus 2, UniProt P0DTD1)
Assay: Inhibition of SARS-CoV-2 3CLpro preincubated for 30 mins followed by addition of (Dabcyl)KTSAVLQSGFRKM(Glu) peptide substrate and measured after […] by FRET assay

**Q.** With `CCC[C@@H](C=O)NC(=O)[C@H](CC(C)C)NC(=O)[C@H](CC(C)C)NC(=O)OCc1ccccc1` as the compound, how does the IC50 read?
**A.** > 10 µM
